Results: patent US8703722B2, “Inhibitors of F18+ E coli binding” (priority 2008, dated 2014)

System: F18-positive E. coli strain 107/86
Test: Carbohydrate inhibition in the in vitro villous adhesion assay (bacteria pre-incubated with saccharide)
Type: cell-based, Escherichia coli
Settings: Example 19, villi of one pig
Description: The nature of the F18R on porcine small intestinal villous enterocytes was investigated using an in vitro villous adhesion inhibition assay (Cox, E., Houvenaghel, A., 1993. Vet. Microbiol. 34(1), 7-18; Verdonck, F., Cox, E., van Gog, K., Van der Stede, Y., Duchateau, L., Deprez, P., Goddeeris, B. M., 2002. Vaccine 20(23-24), 2995-3004). Briefly, a 20 cm intestinal segment was collected from the mid jejunum of a euthanized pig, rinsed three times with ice cold PBS, and fixed with Krebs-Henseleit buffer (160 mM, pH 7.4) containing 1% (v/v) formaldehyde for 30 min at 4° C. Thereafter, the villi were gently scraped from the mucosae with a glass slide and stored in Krebs-Henseleit buffer at 4° C. Treatment of villi with acetone, methanol, 1% Triton® X-100, 10 mM NaIO4 in 0.2M sodium acetate, pH 4.5, or 0.2M sodium acetate, pH 4.5, without NaIO4, respectively, was performed at room temperature on a rotating wheel in a volume of 500 μl during 1 h. Next, the villi were washed 6 times with Krebs-Henseleit buffer followed by addition of 4×10^8 bacteria of the F18 positive reference E. coli strain (107/86), or the F4ac-expressing E. coli strain GIS 26, to an average of 50 villi in a total volume of 500 μl PBS, supplemented with 1% (w/v) D-mannose in order to prevent adhesion mediated by type 1 pili. These mixtures were incubated at room temperature for 1 h while being gently shaken. Villi were examined by phase-contrast microscopy at a magnification of 600, and the number of bacteria adhering along 50 μm brush border was quantitatively evaluated by counting the number of adhering bacteria at 20 randomly selected places, after which the mean bacterial adhesion was calculated.
The F18-positive E. coli strain 107/86 (8×10^7 bacteria) was incubated with different concentrations (10 mg/ml, 1 mg/ml, […]) of blood group H type 1 pentasaccharide (Fucα2Galβ3GlcNAcβ3Galβ4Glc) or lacto-N-tetraose saccharide (Galβ3GlcNAcβ3Galβ4Glc) (Glycoseparations, Moscow, Russia) in a final volume of 100 μl PBS, for 1 h at room temperature, while being gently shaken. The mixtures were then added to the villi, and again incubated for 1 h at room temperature with gentle shaking. Thereafter, the villi were examined by phase-contrast microscopy at a magnification of 600, and the number of bacteria adhering along a […] brush border was quantitatively evaluated by counting the number of adhering bacteria at 20 randomly selected places, after which the mean bacterial adhesion was calculated. Villi of two different F18R-positive pigs were used, and the countings were performed in triplicate.
The F18-positive E. coli strain 107/86 (8×10^7 bacteria) was incubated with 1 mg of blood group H type 1 pentasaccharide (H5-1, Fucα2Galβ3GlcNAcβ3Galβ4Glc), blood group A type 1 hexasaccharide (A6-1, GalNAcα3(Fucα2)Galβ3GlcNAcβ3Galβ4Glc), blood group B type 1 hexasaccharide (B6-1, Galα3(Fucα2)Galβ3GlcNAcβ3Galβ4Glc) or lacto-N-tetraose saccharide (LNT, Galβ3GlcNAcβ3Galβ4Glc) (Elicityl, Grenoble, France) in a final volume of 100 μl PBS, for 1 h at room temperature, while being gently shaken. The mixtures were then added to the villi, and again incubated for 1 h at room temperature with gentle shaking. Thereafter, the villi were examined by phase-contrast microscopy, and adhering bacteria were quantified as described above. Villi of two different F18R-positive pigs were used, and the countings were performed in triplicate.

Substance | Inhibition of F18+ E. coli adherence to porcine intestinal villi (0.2 μg (protein) in 100 μl PBS) [%] | Inhibition of F18+ E. coli adherence to porcine intestinal villi (2 μg (protein) in 100 μl PBS) [%] | Reduction of F18+ E. coli adherence to porcine intestinal villi (10 μg (protein) in 100 μl PBS) [%] | Reduction of F18+ E. coli adherence to porcine intestinal villi (20 μg (protein) in 100 μl PBS)
A6-1/HSA: blood group A type 1 hexasaccharide (GalNAcα3(Fucα2)Galβ3GlcNAcβ3Galβ4Glc) conjugated to HSA; 9 mole oligosaccharide/mole protein | 11.3 | 30.6 | 67.1 | 69.1%
HSA: unconjugated HSA carrier protein used as control [reference compound] |  |  |  | No inhibition
